Test results: ChEMBL document CHEMBL1629461, “The novel benzopyran class of selective cyclooxygenase-2 inhibitors. Part 2: the second clinical candidate having a shorter and favorable human half-life” (Bioorg Med Chem Lett, 2010)

Species on record: Rattus norvegicus
Test: animal or person
Settings: read-out: INH

`CC(C)Cc1cc2c(cc1Cl)C=C(C(=O)O)C(C(F)(F)F)O2` (stereo unspecified) gave an inhibition in vivo at 10 mg/kg of 62%.
